# Experimental data as given in ChEMBL document CHEMBL3734651, “Synthesis of dihydropyrimidine α,γ-diketobutanoic acid derivatives targeting HIV integrase” (Eur J Med Chem, 2015).
# Tested on: Human immunodeficiency virus 1
# Experiment: Antiviral activity against HIV1 infected in human peripheral blood mononuclear cells assessed as inhibition of reverse transcriptase activity incubated for 6 days
# Assay type: functional, organism-based
# Settings: Human immunodeficiency virus 1, 144 h
smiles,measurement,value
Cc1cn([C@H]2C[C@H](N=[N+]=[N-])[C@@H](CO)O2)c(=O)[nH]c1=O [ZIDOVUDINE],EC50,7.4 nM
